Results as given in PubChem BioAssay (Tox21).
Only a part is listed here, and it is no random draw. Inconclusive results are not listed. A call without a number means that no potency is given here. The source made the active and inactive calls. Calls follow the shape of the dose curve; as a rule, active = well fitted cell-killing curve with a large enough effect in the repeat runs; inconclusive = weak or mixed curves; inactive = flat fitted curve, though single readings scatter.
Potency is read from the fitted curve at half-maximal effect.

Experiment: qHTS assay to identify small molecule antagonists of the estrogen related receptor (ERR) signaling pathway from Tox21 library - cell viability counter screen (AID 1224834); also: nearly all actives have a fitted effect of over 30% in size
Conditions: ERR reporter cells viability, CellTiter-Fluor, 17.5 h; series mostly up to 92.4 µM
From the text: National Center for Advancing Translational Sciences [NCATS]
NIH Chemical Genomics Center [NCGC]
U.S. Environmental Protection Agency [EPA]
National Institutes of Environmental Health Sciences [NIEHS]
National Toxicology Program [NTP]
U.S. Food and Drug Administration [FDA]
Estrogen related receptors (ERRs), the first orphan nuclear receptors discovered, play an important role in the control of cellular energy metabolism. ERRs are required for high-energy production in response to the environmental challenges. ERR-alpha was also identified as an adverse marker for breast cancer progression; ERR-alpha-positive tumors have a poor prognosis. To screen and to identify environmental compounds that perturb the ERR signaling pathways could provide valuable information for potential therapeutic or preventive measures in the treatment of metabolic disease. To differentiate true ERR antagonists or agonist from cytotoxic substances, the assay is multiplexed with cell viability assay.
Tox21 Assay Protocol Summary:
The ERR cells were dispensed at 2,000 cells/5 ul/well in 1536-well white plates using a Multidrop dispenser. After the assay plates were incubated at a 37 C/5% CO2 incubator for 6 hours, 23 nL of compounds dissolved in DMSO, positive and negative controls or DMSO only was transferred to the assay plate by a pin tool. The plates were incubated at 37 C for 17.5 hours. 1 ul/well of CellTiter-Fluor reagent was added into the assay plates using a Flying Reagent Dispenser. After 30-minute incubation at 37 C/5% CO2, the fluorescence intensity in the plates was measured using a ViewLux plate reader.
With `O=C(Cl)OCCOC(=O)Cl` the Potency was “inactive”. For `O=C(Cl)Oc1ccccc1`, the Potency was “inactive”. For `O=P(Cl)(Oc1ccccc1)Oc1ccccc1`, the Potency was “inactive”. For `CCC(C)(OOC(C)(C)C)OOC(C)(C)C`, the viability change, negative = cytotoxic was inactive: -3.82% [at 19 µM]. With `O=[P+](Oc1ccccc1)Oc1ccccc1` the Potency was “inactive”. In the case of `O=[N+]([O-])c1ccc([N+](=O)[O-])cc1`, the Potency is reported as active: 27.3 µM. With `O=P(Cl)(Cl)c1ccccc1` the Potency was “inactive”. For `CC(C)CCCCCCCOP(OCCCCCCCC(C)C)Oc1ccccc1`, the Potency was “inactive”. With `CCOC(=O)Cl` the Potency was “inactive”. For `COC(=O)Cl`, the Potency was “inactive”. In the case of `CCCCOP(OCCCC)OCCCC`, the Potency is reported as “inactive”. In the case of `CN(C(=O)Cc1cccc2occc12)[C@H]1CC[C@@]2(CCCO2)C[C@@H]1N1CCCC1`, the Potency is reported as “inactive”. In the case of `CCCCC(CC)CO[P+](=O)OCC(CC)CCCC` (centres undefined), the Potency is reported as “inactive”. For `CCNC(C)Cc1ccc2c(c1)OCO2` (centres undefined), the Potency was “inactive”. With `CCCCO[P+](=O)OCCCC` the Potency was “inactive”. With `Cc1cc([N+](=O)[O-])c(O)c([N+](=O)[O-])c1` the Potency was active: 55 µM. With `CN(N=O)C(=N)N[N+](=O)[O-]` the Potency was “inactive”. In the case of `NC(=O)Nc1ccc([As](=O)(O)O)cc1`, the Potency is reported as “inactive”. With `CN(C(=O)Cc1ccc(Cl)c(Cl)c1)[C@H]1CC[C@@]2(CCCO2)C[C@@H]1N1CCCC1` the Potency was “inactive”. In the case of `ClP(Cl)c1ccccc1`, the Potency is reported as “inactive”. For `CCOP(=S)(CC)Sc1ccccc1` (centres undefined), the Potency was “inactive”. For `O=[p+]1oc2ccccc2c2ccccc21` (centres undefined), the Potency was “inactive”. With `COP(=S)(Cl)OC` the Potency was “inactive”. For `O=[N+]([O-])c1ccc(S(=O)(=O)O)c([N+](=O)[O-])c1`, the Potency was “inactive”.
